{"sequences": {"note": "Chains of the proteins cited; added tags and fusions are not shown. Lines headed by an entry give the natural chain unless they say otherwise; changes in a name come on top. Residues count along the entry.", "UniProt P35916, 25-1363": "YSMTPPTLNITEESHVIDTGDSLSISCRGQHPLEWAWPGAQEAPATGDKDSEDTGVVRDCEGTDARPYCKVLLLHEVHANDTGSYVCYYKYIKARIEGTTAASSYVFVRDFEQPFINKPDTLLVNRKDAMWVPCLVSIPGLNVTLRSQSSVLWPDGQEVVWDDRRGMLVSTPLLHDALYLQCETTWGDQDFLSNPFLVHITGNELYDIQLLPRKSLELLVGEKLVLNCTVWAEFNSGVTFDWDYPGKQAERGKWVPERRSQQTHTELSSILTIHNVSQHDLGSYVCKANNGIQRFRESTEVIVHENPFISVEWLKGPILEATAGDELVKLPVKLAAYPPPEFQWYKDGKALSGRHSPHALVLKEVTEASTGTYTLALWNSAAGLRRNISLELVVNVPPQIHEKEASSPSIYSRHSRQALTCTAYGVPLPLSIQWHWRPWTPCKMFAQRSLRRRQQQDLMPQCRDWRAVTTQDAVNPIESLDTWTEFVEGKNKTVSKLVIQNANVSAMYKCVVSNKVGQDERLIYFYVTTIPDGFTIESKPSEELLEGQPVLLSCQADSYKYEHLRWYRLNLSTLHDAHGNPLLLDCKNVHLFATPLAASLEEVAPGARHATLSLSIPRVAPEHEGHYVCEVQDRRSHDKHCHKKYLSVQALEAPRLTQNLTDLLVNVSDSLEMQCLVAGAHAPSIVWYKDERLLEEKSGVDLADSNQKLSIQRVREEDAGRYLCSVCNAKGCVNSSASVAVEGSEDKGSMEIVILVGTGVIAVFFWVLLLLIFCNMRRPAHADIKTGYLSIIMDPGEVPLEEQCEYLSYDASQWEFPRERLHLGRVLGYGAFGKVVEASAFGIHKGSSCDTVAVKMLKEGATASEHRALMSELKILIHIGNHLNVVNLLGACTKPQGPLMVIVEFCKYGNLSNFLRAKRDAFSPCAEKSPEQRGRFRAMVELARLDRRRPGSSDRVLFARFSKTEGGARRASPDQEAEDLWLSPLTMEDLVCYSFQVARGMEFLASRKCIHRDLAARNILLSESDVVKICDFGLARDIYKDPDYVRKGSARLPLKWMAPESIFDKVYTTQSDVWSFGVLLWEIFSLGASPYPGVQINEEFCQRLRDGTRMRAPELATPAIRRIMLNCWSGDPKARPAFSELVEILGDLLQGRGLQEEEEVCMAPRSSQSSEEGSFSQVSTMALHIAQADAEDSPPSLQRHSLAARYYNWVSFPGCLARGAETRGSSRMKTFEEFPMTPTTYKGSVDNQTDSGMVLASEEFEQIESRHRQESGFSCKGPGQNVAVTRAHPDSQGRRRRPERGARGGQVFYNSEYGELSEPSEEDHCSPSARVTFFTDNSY", "UniProt P06241, whole entry": "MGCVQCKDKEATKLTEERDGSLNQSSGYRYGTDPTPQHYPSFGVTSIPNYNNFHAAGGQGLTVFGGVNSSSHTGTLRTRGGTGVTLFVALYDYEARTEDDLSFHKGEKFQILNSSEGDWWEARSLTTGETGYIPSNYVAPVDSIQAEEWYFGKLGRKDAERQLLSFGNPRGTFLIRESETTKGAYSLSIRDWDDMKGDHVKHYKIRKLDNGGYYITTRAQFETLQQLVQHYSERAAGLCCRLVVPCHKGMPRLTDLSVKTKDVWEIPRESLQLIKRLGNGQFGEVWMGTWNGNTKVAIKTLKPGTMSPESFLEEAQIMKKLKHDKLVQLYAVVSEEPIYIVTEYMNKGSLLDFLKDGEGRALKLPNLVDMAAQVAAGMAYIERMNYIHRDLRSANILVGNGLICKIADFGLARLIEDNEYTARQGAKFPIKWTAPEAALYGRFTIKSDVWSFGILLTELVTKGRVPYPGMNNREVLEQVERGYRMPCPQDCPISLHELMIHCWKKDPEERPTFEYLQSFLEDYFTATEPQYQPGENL", "UniProt O75116": "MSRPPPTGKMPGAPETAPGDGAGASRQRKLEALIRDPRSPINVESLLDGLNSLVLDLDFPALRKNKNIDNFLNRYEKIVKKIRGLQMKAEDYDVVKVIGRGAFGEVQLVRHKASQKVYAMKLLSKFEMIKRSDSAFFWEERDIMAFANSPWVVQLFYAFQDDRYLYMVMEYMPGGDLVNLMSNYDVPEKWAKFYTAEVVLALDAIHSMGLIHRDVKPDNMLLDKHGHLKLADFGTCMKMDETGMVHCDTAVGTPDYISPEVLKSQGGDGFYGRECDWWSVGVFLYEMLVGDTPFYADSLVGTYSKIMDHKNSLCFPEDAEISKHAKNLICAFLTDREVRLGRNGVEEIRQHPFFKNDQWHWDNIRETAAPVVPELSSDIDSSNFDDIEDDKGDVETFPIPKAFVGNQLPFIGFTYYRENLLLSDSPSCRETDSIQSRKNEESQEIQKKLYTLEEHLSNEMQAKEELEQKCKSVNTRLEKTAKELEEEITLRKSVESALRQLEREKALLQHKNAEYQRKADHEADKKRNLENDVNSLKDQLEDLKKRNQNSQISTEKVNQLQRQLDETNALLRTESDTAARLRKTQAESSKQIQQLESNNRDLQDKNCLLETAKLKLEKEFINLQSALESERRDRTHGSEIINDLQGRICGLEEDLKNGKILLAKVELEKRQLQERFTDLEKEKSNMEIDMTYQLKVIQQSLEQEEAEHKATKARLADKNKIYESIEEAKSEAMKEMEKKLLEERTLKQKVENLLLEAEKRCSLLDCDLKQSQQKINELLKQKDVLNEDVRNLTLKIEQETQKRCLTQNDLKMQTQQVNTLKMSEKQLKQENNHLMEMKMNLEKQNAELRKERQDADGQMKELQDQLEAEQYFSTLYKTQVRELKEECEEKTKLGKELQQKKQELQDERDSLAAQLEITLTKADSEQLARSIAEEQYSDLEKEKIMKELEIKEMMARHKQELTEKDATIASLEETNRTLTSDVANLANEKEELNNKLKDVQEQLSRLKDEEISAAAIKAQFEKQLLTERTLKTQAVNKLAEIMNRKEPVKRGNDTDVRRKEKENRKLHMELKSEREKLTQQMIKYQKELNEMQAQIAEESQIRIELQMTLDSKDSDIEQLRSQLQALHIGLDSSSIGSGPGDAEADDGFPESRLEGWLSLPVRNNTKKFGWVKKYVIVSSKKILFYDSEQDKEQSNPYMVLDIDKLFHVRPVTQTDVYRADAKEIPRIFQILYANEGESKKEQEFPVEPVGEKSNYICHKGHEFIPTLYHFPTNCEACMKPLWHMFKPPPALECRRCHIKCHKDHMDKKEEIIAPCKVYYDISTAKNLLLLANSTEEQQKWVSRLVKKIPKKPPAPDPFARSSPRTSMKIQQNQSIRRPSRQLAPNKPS", "UniProt Q02156": "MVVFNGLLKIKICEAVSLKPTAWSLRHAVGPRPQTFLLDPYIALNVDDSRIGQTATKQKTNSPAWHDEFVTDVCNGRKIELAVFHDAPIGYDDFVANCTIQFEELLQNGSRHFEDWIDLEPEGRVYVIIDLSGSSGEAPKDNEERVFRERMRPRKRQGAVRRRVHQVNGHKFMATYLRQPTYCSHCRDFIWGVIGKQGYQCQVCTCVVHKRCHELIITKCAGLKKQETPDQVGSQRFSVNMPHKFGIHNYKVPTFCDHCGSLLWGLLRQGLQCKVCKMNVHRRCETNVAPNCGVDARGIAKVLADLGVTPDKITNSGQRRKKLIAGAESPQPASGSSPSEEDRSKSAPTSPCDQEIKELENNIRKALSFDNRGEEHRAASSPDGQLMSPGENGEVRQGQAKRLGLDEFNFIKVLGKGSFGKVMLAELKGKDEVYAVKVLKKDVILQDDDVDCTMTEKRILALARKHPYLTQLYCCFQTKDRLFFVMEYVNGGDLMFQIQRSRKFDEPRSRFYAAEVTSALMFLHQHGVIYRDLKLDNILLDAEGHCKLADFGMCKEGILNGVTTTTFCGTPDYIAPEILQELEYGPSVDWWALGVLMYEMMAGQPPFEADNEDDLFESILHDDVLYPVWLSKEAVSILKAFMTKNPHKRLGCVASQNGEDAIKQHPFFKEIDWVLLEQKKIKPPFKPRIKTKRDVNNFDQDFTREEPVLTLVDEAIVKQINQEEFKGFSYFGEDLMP", "UniProt Q9Y6E0": "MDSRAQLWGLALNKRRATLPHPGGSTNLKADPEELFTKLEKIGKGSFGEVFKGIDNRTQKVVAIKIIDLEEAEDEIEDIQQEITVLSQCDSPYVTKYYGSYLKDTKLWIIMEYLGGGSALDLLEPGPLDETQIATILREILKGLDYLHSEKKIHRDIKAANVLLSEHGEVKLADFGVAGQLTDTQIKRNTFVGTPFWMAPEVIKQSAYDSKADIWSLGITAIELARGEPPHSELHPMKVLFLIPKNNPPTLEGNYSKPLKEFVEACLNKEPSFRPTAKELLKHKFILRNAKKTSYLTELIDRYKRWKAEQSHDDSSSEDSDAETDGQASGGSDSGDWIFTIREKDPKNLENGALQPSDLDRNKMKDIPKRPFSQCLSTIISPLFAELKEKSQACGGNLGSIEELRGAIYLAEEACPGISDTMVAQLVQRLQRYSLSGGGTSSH", "UniProt Q05655": "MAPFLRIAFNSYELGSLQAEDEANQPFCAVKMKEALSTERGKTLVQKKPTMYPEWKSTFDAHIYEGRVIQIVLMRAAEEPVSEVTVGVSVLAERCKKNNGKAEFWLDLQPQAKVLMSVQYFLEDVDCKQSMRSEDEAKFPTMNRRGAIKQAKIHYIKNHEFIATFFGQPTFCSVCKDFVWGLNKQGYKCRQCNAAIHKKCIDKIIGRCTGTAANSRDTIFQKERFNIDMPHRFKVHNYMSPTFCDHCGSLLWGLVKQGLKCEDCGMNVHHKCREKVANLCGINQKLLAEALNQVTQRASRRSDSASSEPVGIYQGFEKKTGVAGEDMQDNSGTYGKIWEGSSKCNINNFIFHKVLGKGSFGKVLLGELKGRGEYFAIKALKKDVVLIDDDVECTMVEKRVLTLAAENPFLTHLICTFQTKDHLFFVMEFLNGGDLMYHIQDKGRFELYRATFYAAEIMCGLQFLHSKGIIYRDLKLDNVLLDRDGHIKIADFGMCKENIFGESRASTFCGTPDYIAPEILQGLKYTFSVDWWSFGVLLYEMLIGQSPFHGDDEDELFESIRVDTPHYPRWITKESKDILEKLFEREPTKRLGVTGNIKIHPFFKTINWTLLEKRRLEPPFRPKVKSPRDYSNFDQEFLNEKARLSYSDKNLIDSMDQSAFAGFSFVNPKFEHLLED", "UniProt Q9Y6M4": "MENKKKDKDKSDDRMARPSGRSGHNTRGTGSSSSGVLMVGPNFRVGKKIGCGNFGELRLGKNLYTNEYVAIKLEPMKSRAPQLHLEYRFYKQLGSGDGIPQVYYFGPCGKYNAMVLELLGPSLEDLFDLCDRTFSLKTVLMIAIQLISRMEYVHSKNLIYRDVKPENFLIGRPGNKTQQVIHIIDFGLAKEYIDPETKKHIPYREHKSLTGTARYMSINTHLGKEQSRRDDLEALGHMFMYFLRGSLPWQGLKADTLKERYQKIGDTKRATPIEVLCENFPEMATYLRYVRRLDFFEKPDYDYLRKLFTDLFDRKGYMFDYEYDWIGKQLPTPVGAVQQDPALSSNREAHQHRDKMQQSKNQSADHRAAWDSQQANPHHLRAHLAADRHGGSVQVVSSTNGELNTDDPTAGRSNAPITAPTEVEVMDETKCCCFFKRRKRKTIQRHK", "UniProt Q00535, whole entry": "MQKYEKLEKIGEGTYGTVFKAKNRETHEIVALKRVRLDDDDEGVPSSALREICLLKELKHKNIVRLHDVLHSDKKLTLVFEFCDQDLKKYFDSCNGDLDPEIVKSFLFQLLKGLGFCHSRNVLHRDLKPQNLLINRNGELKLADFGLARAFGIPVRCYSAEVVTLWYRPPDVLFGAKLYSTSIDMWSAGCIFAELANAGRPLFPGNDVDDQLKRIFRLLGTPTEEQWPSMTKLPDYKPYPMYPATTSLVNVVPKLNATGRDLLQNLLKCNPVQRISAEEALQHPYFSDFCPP"}, "source": "patent US20150258192A1", "about": "“COMPOSITIONS AND METHODS FOR PREVENTING OR TREATING CHRONIC LUNG ALLOGRAFT DYSFUNCTION (CLAD) AND IDIOPATHIC PULMONARY FIBROSIS (IPF)” (priority 2014, published 2015)", "test_in_all_cases": "Kinase Profiling Assay", "format_in_all_cases": "biochemical", "conditions_in_all_cases": "peptide 100 μM", "key": {"[1]": {"biological_target": "T1, Met(Y1248H)(h) (Homo sapiens, UniProt P08581, Y1230H)", "T1 construct": "purchased Millipore", "procedure,_shortened": "(§1)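 Specificity of MK2 inhibitory peptides is assessed against a panel of 266 human kinases. Kinase transfers a radiolabeled phosphate from ATP onto a positively charged substrate, which is trapped on a negatively charged filter and quantified by scintillation counting against full-activity control; duplicate determinations.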"}, "[2]": {"biological_target": "cKit(V654A)(h) (Homo sapiens, UniProt P10721, V654A)", "procedure,_shortened": "as §1"}, "[3]": {"biological_target": "T2, BrSK2(h) (Homo sapiens, UniProt Q8IWQ3)", "T2 sequence (Q8IWQ3 1-736)": "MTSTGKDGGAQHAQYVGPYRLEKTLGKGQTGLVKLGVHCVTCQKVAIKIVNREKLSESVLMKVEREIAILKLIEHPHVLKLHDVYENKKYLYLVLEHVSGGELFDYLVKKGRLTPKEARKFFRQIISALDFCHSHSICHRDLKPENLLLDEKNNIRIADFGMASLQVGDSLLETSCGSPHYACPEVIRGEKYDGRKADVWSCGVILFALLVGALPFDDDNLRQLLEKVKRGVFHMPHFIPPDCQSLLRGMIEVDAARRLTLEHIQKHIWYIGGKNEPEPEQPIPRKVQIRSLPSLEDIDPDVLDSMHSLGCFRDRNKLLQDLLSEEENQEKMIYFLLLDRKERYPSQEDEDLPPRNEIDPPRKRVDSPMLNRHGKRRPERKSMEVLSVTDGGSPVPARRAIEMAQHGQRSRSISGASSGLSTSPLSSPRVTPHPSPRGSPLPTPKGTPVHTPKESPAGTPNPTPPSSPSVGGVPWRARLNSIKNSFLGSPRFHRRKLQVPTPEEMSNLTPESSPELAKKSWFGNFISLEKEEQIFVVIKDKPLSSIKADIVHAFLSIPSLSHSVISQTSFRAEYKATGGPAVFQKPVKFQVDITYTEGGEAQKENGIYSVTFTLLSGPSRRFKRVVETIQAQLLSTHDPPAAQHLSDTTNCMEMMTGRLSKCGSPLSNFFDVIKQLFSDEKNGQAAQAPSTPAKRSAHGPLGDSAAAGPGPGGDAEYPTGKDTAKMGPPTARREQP", "procedure,_shortened": "as §1"}, "[4]": {"biological_target": "T3, SGK(h) (Homo sapiens, UniProt O00141)", "T3 construct": "purchased Millipore", "T3 sequence (O00141 1-431)": "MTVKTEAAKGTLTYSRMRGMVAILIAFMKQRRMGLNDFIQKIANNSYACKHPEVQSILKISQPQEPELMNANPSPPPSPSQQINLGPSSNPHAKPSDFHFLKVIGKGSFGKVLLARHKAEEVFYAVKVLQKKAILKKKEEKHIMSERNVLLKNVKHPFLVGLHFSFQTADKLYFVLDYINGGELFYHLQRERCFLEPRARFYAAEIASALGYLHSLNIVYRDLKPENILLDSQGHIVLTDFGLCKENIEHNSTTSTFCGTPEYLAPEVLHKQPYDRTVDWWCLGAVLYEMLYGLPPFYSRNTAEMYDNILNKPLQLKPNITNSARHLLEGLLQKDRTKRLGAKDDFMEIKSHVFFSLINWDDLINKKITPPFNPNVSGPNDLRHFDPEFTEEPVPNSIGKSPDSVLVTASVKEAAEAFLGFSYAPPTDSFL", "procedure,_shortened": "as §1"}, "[5]": {"biological_target": "Flt4(h) (Homo sapiens, UniProt P35916)", "procedure,_shortened": "as §1"}, "[6]": {"biological_target": "Fyn(h) (Homo sapiens, UniProt P06241)", "procedure,_shortened": "as §1"}, "[7]": {"biological_target": "ROCK-II(h) (Homo sapiens, UniProt O75116)", "procedure,_shortened": "as §1"}, "[8]": {"biological_target": "EGFR(T790M, L858R)(h) (Homo sapiens, UniProt P00533, L858R/T790M)", "procedure,_shortened": "as §1"}, "[9]": {"biological_target": "PKCε(h) (Homo sapiens, UniProt Q02156)", "procedure,_shortened": "as §1"}, "[10]": {"biological_target": "T4, MST3(h) (Homo sapiens, UniProt Q9Y6E0)", "T4 construct": "purchased Millipore", "procedure,_shortened": "as §1"}, "[11]": {"biological_target": "cSRC(h) (Homo sapiens, UniProt P12931)", "procedure,_shortened": "as §1"}, "[12]": {"biological_target": "Flt3(h) (Homo sapiens, UniProt P36888)", "procedure,_shortened": "as §1"}, "[13]": {"biological_target": "CK2(h) (Homo sapiens, UniProt P68400)", "procedure,_shortened": "as §1"}, "[14]": {"biological_target": "cKit(D816V)(h) (Homo sapiens, UniProt P10721, D816V)", "procedure,_shortened": "as §1"}, "[15]": {"biological_target": "PKCδ(h) (Homo sapiens, UniProt Q05655)", "procedure,_shortened": "as §1"}, "[16]": {"biological_target": "PDGFRβ(h) (Homo sapiens, UniProt P09619)", "procedure,_shortened": "as §1"}, "[17]": {"biological_target": "T5, mTOR/FKBP12(h) (Homo sapiens, UniProt P42345)", "T5 construct": "purchased Millipore", "procedure,_shortened": "as §1"}, "[18]": {"biological_target": "CK1γ3(h) (Homo sapiens, UniProt Q9Y6M4)", "procedure,_shortened": "as §1"}, "[19]": {"biological_target": "TSSK2(h) (Homo sapiens, UniProt Q96PF2)", "procedure,_shortened": "as §1"}, "[20]": {"biological_target": "CDK5/p25(h) (Homo sapiens, UniProt Q00535)", "procedure,_shortened": "as §1"}}, "data": [{"molecule": "FAKLAARLYRKALARQLGVAA [MMI-0300]", "values": [{"measurement": "% activity", "setting": "[1]", "result": 117, "unit": "%"}]}, {"molecule": "YARAAARQARAKALNRQLGVA (Mammal) [MMI-0200]", "values": [{"measurement": "% activity", "setting": "[2]", "result": 113, "unit": "%"}, {"measurement": "% activity", "setting": "[3]", "result": 102, "unit": "%"}, {"measurement": "% activity", "setting": "[4]", "result": 115, "unit": "%"}, {"measurement": "% activity", "setting": "[5]", "result": 105, "unit": "%"}]}, {"molecule": "CC(C)C[C@H](NC(=O)[C@H](C)NC(=O)[C@H](CCCCN)NC(=O)[C@H](C)NC(=O)[C@H](CCCNC(=N)N)NC(=O)[C@H](C)NC(=O)[C@H](CCC(N)=O)NC(=O)[C@H](CCCNC(=N)N)NC(=O)[C@H](C)NC(=O)[C@H](C)NC(=O)[C@H](C)NC(=O)[C@H](CCCNC(=N)N)NC(=O)[C@H](C)NC(=O)[C@@H](N)Cc1ccc(O)cc1)C(=O)N[C@@H](C)C(=O)N[C@@H](CCCNC(=N)N)C(=O)N[C@@H](CCC(N)=O)C(=O)N[C@@H](CC(C)C)C(=O)NCC(=O)N[C@H](C(=O)N[C@@H](C)C(=O)N[C@@H](C)C(=O)O)C(C)C", "note": "[MMI-0100]", "values": [{"measurement": "% activity", "setting": "[6]", "result": 71, "unit": "%"}, {"measurement": "% activity", "setting": "[7]", "result": 102, "unit": "%"}, {"measurement": "% activity", "setting": "[8]", "result": 93, "unit": "%"}, {"measurement": "% activity", "setting": "[9]", "result": 102, "unit": "%"}, {"measurement": "% activity", "setting": "[10]", "result": 104, "unit": "%"}, {"measurement": "% activity", "setting": "[11]", "result": 70, "unit": "%"}, {"measurement": "% activity", "setting": "[12]", "result": 104, "unit": "%"}, {"measurement": "% activity", "setting": "[13]", "result": 90, "unit": "%"}, {"measurement": "% activity", "setting": "[14]", "result": 117, "unit": "%"}, {"measurement": "% activity", "setting": "[15]", "result": 100, "unit": "%"}, {"measurement": "% activity", "setting": "[16]", "result": 116, "unit": "%"}, {"measurement": "% activity", "setting": "[17]", "result": 117, "unit": "%"}, {"measurement": "% activity", "setting": "[18]", "result": 105, "unit": "%"}, {"measurement": "% activity", "setting": "[19]", "result": 107, "unit": "%"}, {"measurement": "% activity", "setting": "[20]", "result": 114, "unit": "%"}]}]}
